The test concerns the target T1, Polyunsaturated fatty acid lipoxygenase ALOX15 (Homo sapiens) (UniProt P16050).
T1 sequence (whole entry): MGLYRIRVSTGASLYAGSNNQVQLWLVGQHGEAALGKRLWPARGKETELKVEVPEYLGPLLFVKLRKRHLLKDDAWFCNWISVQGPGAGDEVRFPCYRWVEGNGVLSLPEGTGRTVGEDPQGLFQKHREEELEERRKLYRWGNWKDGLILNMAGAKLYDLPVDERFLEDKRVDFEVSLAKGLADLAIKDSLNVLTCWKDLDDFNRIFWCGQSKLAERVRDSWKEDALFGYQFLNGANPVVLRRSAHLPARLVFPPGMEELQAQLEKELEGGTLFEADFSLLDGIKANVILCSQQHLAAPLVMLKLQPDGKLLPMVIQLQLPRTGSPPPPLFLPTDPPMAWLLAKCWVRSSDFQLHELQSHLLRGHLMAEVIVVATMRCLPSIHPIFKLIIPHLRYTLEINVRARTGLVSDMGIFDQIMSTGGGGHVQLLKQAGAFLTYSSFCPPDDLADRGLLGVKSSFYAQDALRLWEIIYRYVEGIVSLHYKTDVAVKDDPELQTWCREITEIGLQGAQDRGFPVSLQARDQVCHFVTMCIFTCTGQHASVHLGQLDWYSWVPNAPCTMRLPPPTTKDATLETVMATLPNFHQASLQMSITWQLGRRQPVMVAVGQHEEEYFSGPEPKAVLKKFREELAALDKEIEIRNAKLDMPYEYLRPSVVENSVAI
As to the kind of experiment: Inhibition of recombinant N-terminal His6-tagged human reticulocyte 12/15-lipoxygenase using arachidonic acid as substrate at 25 uM by UV-vis spectrometric analysis relative to control. In short, it runs like this: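 His6-tagged human 12/15-LOX, Ni-NTA purified, at 40 nM in 25 mM HEPES pH 7.5 with 0.01% Triton X-100 and 10 μM arachidonic acid, in a stirred cuvette at 22 °C. Diene formation was followed at 234 nm, and percent inhibition at 25 μM inhibitor was calculated against the DMSO control rate.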

Here are results for 1 compound from ChEMBL document CHEMBL3259653, “Potent and selective inhibitors of human reticulocyte 12/15-lipoxygenase as anti-stroke therapies” (J Med Chem, 2014).

`CN(C)c1oc(-c2cccc3ccccc23)nc1C#N`: the Imax is less than 50%.
